Reference: article PMC9502466, “Identification of SARS-CoV-2 Main Protease Inhibitors from a Library of Minor Cannabinoids by Biochemical Inhibition Assay and Surface Plasmon Resonance Characterized Binding Affinity” (Molecules, 2022)
Where two headings read alike, the source gives them in different places.

Assays:
SARS-CoV-2 M^pro [1] = biological target: T1, SARS-CoV-2 M^pro (Severe acute respiratory syndrome coronavirus 2, UniProt P0DTD1); details: for Ka (association constant) / Kd (dissociation constant) / Kd: SPR; for Kd: read-out: KD (affinity)
SARS-CoV-2 M^pro [2] = biological target: T1, SARS-CoV-2 M^pro; experiment: biochemical; details: for kon: read-out: Ka (association constant)
[3] = cannabinoids, 2× fold dilutions from 75 to 4.68 μM

Row | SMILES | binding in the SPR assay (in words) (SARS-CoV-2 M^pro [1]) | Ka (association constant) (SARS-CoV-2 M^pro [1]) | Kd (dissociation constant) (SARS-CoV-2 M^pro [1]) | RU in the SPR sensorgrams (SARS-CoV-2 M^pro [1]; ligand at 1.56–50 μM) | Kd (SARS-CoV-2 M^pro [1]) | RU in the SPR sensorgrams (SARS-CoV-2 M^pro [1]; ligand at 1.56–25 μM) | RU in the SPR sensorgrams (SARS-CoV-2 M^pro [1]; [3]) | Kd (SARS-CoV-2 M^pro [2]) | kon (SARS-CoV-2 M^pro [2])
1 | CCCCc1cc(O)c2c(c1)OC(C)(C)[C@@H]1CCC(C)=C[C@@H]21 [THCB, Δ^9-tetrahydrocannabibutol] | not able to be measured | – | – | – | – | – | – | – | –
2 | Cc1cc(C(=O)N[C@@H](C)C(=O)N[C@H](C(=O)N[C@@H](CC(C)C)C(=O)N[C@H](/C=C/C(=O)OCc2ccccc2)C[C@@H]2CCNC2=O)C(C)C)no1 [M^pro N3] | – | 6631 M⁻¹ s⁻¹ | 0.02898 s⁻¹ | 7.4–26.6 RU | 4.37 µM | – | – | – | –
3 | O=C[C@H](C[C@@H]1CCNC1=O)NC(=O)[C@H](Cc1cccc(F)c1)NC(=O)c1cc2ccccc2[nH]1 [M^pro 11b] | – | 7975 M⁻¹ s⁻¹ | 0.05533 s⁻¹ | – | 6.94 µM | 12.4–54.3 RU | – | – | –
4 | CCCCCc1cc(O)c(C/C=C(\C)CCC=C(C)C)c(O)c1C(=O)O [CBGA, cannabigerolic acid] | – | – | 0.01516 s⁻¹ | – | – | – | 16.6–62.1 RU | 38.9 µM | 390 M⁻¹ s⁻¹
5 | C=C(C)[C@@H]1CCC(C)=C[C@H]1c1c(O)cc(CCCCC)cc1O [CBD, cannabidiol, reference compound] | – | – | 0.04173 s⁻¹ | – | – | – | 10.9–71.0 RU | 78.3 µM | 533 M⁻¹ s⁻¹
6 | C=C(C)[C@@H]1CCC(C)=C[C@H]1c1c(O)cc(CCCCC)c(C(=O)O)c1O [CBDA, cannabidiolic acid] | – | – | 1.104 s⁻¹ | – | – | – | 4.3–50.6 RU | 90.8 µM | 12200 M⁻¹ s⁻¹
